Experimental data reported in US4159334A, “Medicinal preparation with an antiinflammatory, analgesic and antipyretic effect” (priority 1977, dated 1979).

Legend:
[1] = acetic acid "writhing" in mice; format: in vivo; conditions: acetylsalicylic acid = 1
[2] = carrageenin and aerosol-induced inflammatory edema, acute tests in mice; format: in vivo
Text: (§1) The proposed preparation was examined pharmacologically.

yeast fever in rats = format: in vivo; conditions: acetylsalicylic acid = 1
[3] = design: species or system animals; conditions: in vivo
[4] = Aerosol-induced edema of paw in rats (subacute test), exudative process; format: in vivo; conditions: acetylsalicylic acid = 1
Text: Acetylsalicylic acid under the same test conditions produces a similar effect, but with a dose 30 times higher than the dose of the proposed preparation.
Aerosol-induced edeima of
ry paw in rats (subacute test)

[5] = Aerosol-induced edema of paw in mice (acute test); format: in vivo; conditions: acetylsalicylic acid = 1
Text: as §1
Aerosol-induced edema of
paw in mice (acute test)

[6] = phenamine hyperthermia in mice; format: in vivo; conditions: acetylsalicylic acid = 1
Text: | Phenamine hyperthermia in

[7] = acute toxicity to anti-edematous action ratio (LD50/ED50) in mice; format: in vivo
[8] = painful irritation of rat's paw with electric current; format: in vivo, rats; conditions: acetylsalicylic acid = 1
[9] = acute toxicity in mice (oral, intraperitoneal); conditions: mouse, in vivo
[10] = tail burning test in mice; format: in vivo; conditions: acetylsalicylic acid = 1
Protocol: For example, the preparation introduced orally to mice in 10 and 20 mg/kg doses reduced the reaction of the mice to a thermal irritant by 47-75% an hour after administration. Acetylsalicylic acid in 40-300 mg/kg doses causes an effect equal to 37-87%.

In the case of `OC(Nc1nccs1)C(Cl)(Cl)Cl` (stereo not shown) [proposed preparation, 2,2,2-trichloro-1-(2-thiazolylamino)-ethanol], the “Relative activity, analgesic, acetic acid "writhing" in mice” value [1] is reported as 3.5, the “anti-exudative action relative to acetylsalicylic acid” value [2] is reported as “three times superior to the action of acetylsalicyclic acid” and the “Relative activity, antipyretic, yeast fever in rats” value (yeast fever in rats) is reported as 3. For the same compound, the “function of the kidneys” value [3] was “does not affect”, the “function of the liver” value [3] was “does not affect” and the peripheral blood composition [3] was “does not affect”. For the same compound, the “secretory and motor function of the gastrointestinal tract” value [3] was “nor does it essentially influence”, the “weight and structure of internal organs” value [3] was “nor does it essentially influence the secretory and motor function of the gastrointestinal tract, or cause changes in the weight and structure” and the “Relative activity, antiinflammatory, aerosol-induced edema of paw in rats (subacute test)” value [4] was 30.0. The “Relative activity, antiinflammatory, aerosol-induced edema of paw in mice (acute test)” value [5] was 3.2, the “Relative activity, antipyretic, phenamine hyperthermia in mice” value [6] was 2.5 and the “therapeutic range relative to acetylsalicylic acid” value ([7]; Table 2) was “double therapeutic range”. The “Relative therapeutic index, acute toxicity to anti-edematous action ratio (LD50/ED50)” value ([7]; mice, oral administration, acetylsalicylic acid = 1) was 2, the “Relative activity, analgesic, painful irritation of rat's paw with electric current” value [8] was 15 and the selectivity ratio [9] was 1.48. The “Relative activity, analgesic, burning tail of mice” value [10] was 9.
